Source: patent US6420413B2, “Heterocycloalkylbenzocyclobutane and heteroarylbenzocyclobutane compounds” (Les Laboratories Servier, priority 2000, dated 2002)

Amino acid sequences for entries named in this document (tags omitted). Residues count along the entry.
UniProt Q63380, 1-617: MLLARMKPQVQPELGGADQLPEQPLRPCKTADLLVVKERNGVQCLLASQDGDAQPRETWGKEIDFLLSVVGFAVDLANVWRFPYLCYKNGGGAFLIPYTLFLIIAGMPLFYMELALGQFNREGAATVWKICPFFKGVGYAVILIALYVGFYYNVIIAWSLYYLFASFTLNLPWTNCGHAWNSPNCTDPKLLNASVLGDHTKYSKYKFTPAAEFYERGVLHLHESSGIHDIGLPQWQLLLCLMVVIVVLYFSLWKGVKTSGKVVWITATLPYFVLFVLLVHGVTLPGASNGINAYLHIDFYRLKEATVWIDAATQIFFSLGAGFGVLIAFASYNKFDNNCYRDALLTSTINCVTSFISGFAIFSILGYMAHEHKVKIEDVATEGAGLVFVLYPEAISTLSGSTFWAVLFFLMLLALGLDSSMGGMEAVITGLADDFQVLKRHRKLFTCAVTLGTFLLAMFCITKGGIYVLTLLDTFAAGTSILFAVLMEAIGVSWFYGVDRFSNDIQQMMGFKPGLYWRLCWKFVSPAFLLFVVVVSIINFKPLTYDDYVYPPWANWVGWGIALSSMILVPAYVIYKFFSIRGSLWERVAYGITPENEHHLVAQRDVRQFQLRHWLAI
UniProt P31652, whole entry: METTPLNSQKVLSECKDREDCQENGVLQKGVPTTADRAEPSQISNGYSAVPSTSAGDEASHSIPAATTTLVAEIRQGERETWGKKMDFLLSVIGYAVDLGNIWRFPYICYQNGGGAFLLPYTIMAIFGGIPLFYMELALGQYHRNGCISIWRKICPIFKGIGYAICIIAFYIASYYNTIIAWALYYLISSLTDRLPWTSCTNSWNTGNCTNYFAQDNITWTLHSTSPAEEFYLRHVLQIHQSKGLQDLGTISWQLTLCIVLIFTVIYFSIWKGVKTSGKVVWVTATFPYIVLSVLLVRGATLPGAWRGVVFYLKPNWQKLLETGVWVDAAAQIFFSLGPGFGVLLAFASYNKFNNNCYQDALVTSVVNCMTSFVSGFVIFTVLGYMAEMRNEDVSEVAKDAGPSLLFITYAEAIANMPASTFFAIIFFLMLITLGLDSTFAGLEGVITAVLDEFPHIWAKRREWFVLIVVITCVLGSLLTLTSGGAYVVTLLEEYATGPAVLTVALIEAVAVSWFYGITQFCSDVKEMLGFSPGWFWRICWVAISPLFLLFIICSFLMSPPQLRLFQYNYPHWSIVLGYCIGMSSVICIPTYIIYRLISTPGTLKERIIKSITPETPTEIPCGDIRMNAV

Legend:
[1] = target: T1, noradrenalin reuptake sites (Rattus norvegicus, UniProt Q63380); experiment: Determination of the affinity for noradrenalin reuptake sites ([3H]-nisoxetine competition); type: binding; details: used in the Cheng-Prusoff equation; read-out: dissociation constant (Kd) of the radioligand for the noradrenalin reuptake site
T1 construct: The membranes are prepared from rat frontal cortex; from tissue; host or cells: rat frontal cortex membranes
Protocol: The radioactivity retained on the filters is determined by liquid scintillation counting. The binding isotherms are analysed by non-linear regression to determine the IC50 values. Those values are converted into a dissociation constant (Ki) using the Cheng-Prusoff equation: […]

serotonin reuptake sites = serotonin reuptake sites (Rattus norvegicus, UniProt P31652); details: read-out: dissociation constant (Kd) of the radioligand for the serotonin reuptake site; used in the Cheng-Prusoff equation
Protocol: The incubation buffer contains […] TRIS-HCl (pH 7.4), 120 mM NaCl and 5 mM KCl. Non-specific binding is determined using 10 μM citalopram. At the end of the incubation, the incubation medium is filtered and washed three times with 5 ml of cooled buffer. The radioactivity retained on the filters is determined by liquid scintillation counting. The binding isotherms are analysed by non-linear regression to determine the IC50 values. Those values are converted into a dissociation constant (Ki) using the Cheng-Prusoff equation: […]

| Compound | Kd [1] [nM] | Kd (serotonin reuptake sites) [nM] |
| --- | --- | --- |
| CNCCC(Oc1ccccc1OC)c1ccccc1 (centres unmarked) [[^3H]-nisoxetine] | 1.23 | – |
| [^3H]-paroxetine | – | 0.13 |
